Publication PMC10850085 (Nature Communications, 2024)

Experiments:
[1] = target: T1, full-length murine Thrombopoietin (Tpo) (mouse, UniProt P40226 22-356, heavily glycosylated); experiment: SPR; Tpo (wild-type or site II mutants) as analyte over immobilised monomeric or dimeric TpoR (CM5, EDC/NHS); HBS-EP; single-site binding model; highest 15 nM, 250 nM or 50 nM; settings: both partners purified
T1 construct: Thrombopoietin, mouse, residues 22 to 356; Cloned in pcDNA3.0 behind the mIL3 secretion signal and an N-terminal FLAG tag; also called full-length Tpo; full-length cytokine; source: FreeStyle 293-F cells, transfected, secreted

[2] = target: T1, full-length murine Thrombopoietin (Tpo); experiment: SPR; monomeric TpoR ectodomain as analyte over Tpo (full length, TpoN or F162E) directly coupled to a CM5 chip (EDC/NHS); HBS-EP; Biacore 8k; single cycle kinetics, 1:1 binding model; two-fold dilution series, highest 250 nM; settings: both partners purified

B1: murine TpoR ectodomain, monomeric (TpoR_(1-479)) (receptor, mouse, UniProt Q08351 26-479, looked up)
chain: QDVFLLALGTEPLNCFSQTFEDLTCFWDEEEAAPSGTYQLLYAYRGEKPRACPLYSQSVPTFGTRYVCQFPAQDEVRLFFPLHLWVKNVSLNQTLIQRVLFVDSVGLPAPPRVIKARGGSQPGELQIHWEAPAPEISDFLRHELRYGPTDSSNATAPSVIQLLSTETCCPTLWMPNPVPVLDQPPCVHPTASQPHGPAPFLTVKGGSCLVSGLQAGKSYWLQLRSQPDGVSLRGSWGPWSFPVTVDLPGDAVTIGLQCFTLDLKMVTCQWQQQDRTSSQGFFRHSRTRCCPTDRDPTWEKCEEEEPRPGSQPALVSRCHFKSRNDSVIHILVEVTTAQGAVHSYLGSPFWIHQAVLLPTPSLHWREVSSGRLELEWQHQSSWAAQETCYQLRYTGEGREDWKVLEPSLGARGGTLELRPRARYSLQLRARLNGPTYQGPWSAWSPPARVSTGSE
modifications: N-linked glycans at N117, N178, N349; tryptophan mannosylation (W465, W468)
notes: signal peptide in the construct; Thrombopoietin receptor (c-Mpl), mouse, residues 1-479, followed by a TEV cleavage site and the Fc domain of hIgG1; Eluted from Protein G resin by TEV cleavage; residues of the TEV site may remain at the C-terminus; also called murine TpoR (monomeric); source: Expi293F cells, transiently transfected, secreted; purified (Protein G Sepharose, TEV elution, Superdex …)
- Kd [1]: 1 nM
- Kd [2]: 100 ± 20 nM
